# scFv variants of Ab-14 (heavy chain) against a SARS-CoV-2 spike peptide

The measurements come from Engelhart et al. 2022 (doi:10.1038/s41597-022-01779-4) through the FLAb antibody collection.

The target is the same throughout: PDVDLGDISGINAS, from the HR2 region of SARS-CoV-2 spike.

Ab-14 is the parent antibody, in scFv form: VH, then the linker GGGGSGGGGSGGGGS, then VL. The light chain is unchanged in all variants.
VH: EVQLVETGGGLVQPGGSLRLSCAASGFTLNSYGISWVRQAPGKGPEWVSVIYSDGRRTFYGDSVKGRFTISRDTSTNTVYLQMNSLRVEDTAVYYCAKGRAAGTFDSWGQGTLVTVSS
VL: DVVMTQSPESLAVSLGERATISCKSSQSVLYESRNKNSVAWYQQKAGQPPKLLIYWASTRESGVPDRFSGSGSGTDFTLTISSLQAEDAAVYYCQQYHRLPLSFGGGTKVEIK

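Phage display of a naive human antibody library on the peptide gave the parent. Variants in AAYL49 differ from the parent at up to three CDR positions; double and triple changes were sampled at random. In AlphaSeq, yeast of one mating type display the scFv and yeast of the other type display the target. After mating in shaken culture at 30 °C for 16 h, diploids were selected and their barcode pairs sequenced. Scores were corrected for input abundance and mapped to Kd with protein pairs of known affinity run in the same pool. The assay was run in three technical replicates.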

Variants are written as CDR1, CDR2 and CDR3 of the heavy chain (limits as in the source). Parent: GFTLNSYGIS, VIYSDGRRTFYGDSVK, GRAAGTFDS.
Affinities are written as log10 Kd with Kd in nM; a lower number is a better binder.
The mean shown is taken over the replicates in which the pair was detected.
Where no diploid with the target was found in any replicate, the entry reads "nd": below detection, most likely a poor binder, though not proof of it.
Background: pairings of library AAYL49 with three empty control strains gave a value in 15% of cases (median 4.06, 5th percentile 2.83). Values in that range, when seen in few replicates, are hard to tell from nonspecific mating. For each scFv, signals with the empty controls are counted beside the result.

With QFFLNSYGIS | VGYSDGRRTFYGDSVK | GRAAGTFDS the result was 4.92 (2 of 3 replicates; controls 4 of 9).
With GFTANSYGIS | VIYSDGRRTFYGDSVY | GRAAGTFTS the result was 3.52 (1 of 3 replicates; controls 0 of 9).
With GFTLNSYGAS | VIYSDNRRTFYSDSVK | GRAAGTFDS the result was 3.49 (1 of 3 replicates; controls 1 of 9).
With GFCLNSYGIS | VIYCDGRRTFYGDSVK | GRTAGTFDS the result was 3.80 (2 of 3 replicates; controls 2 of 9).
With GFTLNSYGIS | VIYSDLRRTFVGDSVK | GRAAGTEDS the result was nd (0 of 3 replicates; controls 0 of 9).
With GFTLNSHGIY | VIYSDGRRTFYGDSCK | GRAAGTFDS the result was nd (0 of 3 replicates; controls 0 of 9).
With GFTLNSYGIS | VIYSDGRRTNYGDSVK | GRAAIVFDS the result was nd (0 of 3 replicates; controls 0 of 9).
With GFTLNSYGIS | VLYSDGRRTFYGDSVK | GHAAGLFDS the result was 1.53 (3 of 3 replicates; controls 0 of 9).
With GFTANSFGIS | VIYSDGRRTFYGPSVK | GRAAGTFDS the result was 4.16 (2 of 3 replicates; controls 3 of 9).
With GFTLNSYGIS | VIYSDGWRTFYGDKVK | GRAHGTFDS the result was nd (0 of 3 replicates; controls 0 of 9).
With GFTLNSYPIS | NIYSDGRRTFYGDSVK | GRAAGTFGS the result was nd (0 of 3 replicates; controls 2 of 9).
With GFTLNSYGIS | VIDSDGRGTFYGDSVK | GRAAGTFDS the result was 3.62 (2 of 3 replicates; controls 1 of 9).
With GFTLNSYGIN | VIYFDGSRTFYGDSVK | GRAAGTFDS the result was nd (0 of 3 replicates; controls 1 of 9).
With GYTLNSYGIS | VIYSDGRRTFYGDSVK | ERAAGTFYS the result was 2.63 (1 of 3 replicates; controls 0 of 9).
With GFTLNSYTIS | VIYSDGRRTFAGDSDK | GRAAGTFDS the result was nd (0 of 3 replicates; controls 3 of 9).
With GFVLNSYGIS | VIYSDGRRTFYGDSVK | GRRAGYFDS the result was nd (0 of 3 replicates; controls 2 of 9).
With GFTLNSYGIS | VLISDGRRTFYGDSVK | GRAAGTFDH the result was 3.42 (1 of 3 replicates; controls 0 of 9).
With GFTLQSYGKS | VIYSDGRRTFYGDSVK | RRAAGTFDS the result was 2.13 (3 of 3 replicates; controls 6 of 9).
With GFTLNSYGIS | VIYSDGRRTFYGDSVK | GRAAGKFDR the result was nd (0 of 3 replicates; controls 0 of 9).
With GWTLNSYGIS | VIYSDGRRTFYGDSVK | GRAAWTFDS the result was nd (0 of 3 replicates; controls 0 of 9).
With GFTRNSYGIS | CIYSDGTRTFYGDSVK | GRAAGTFDS the result was nd (0 of 3 replicates; controls 0 of 9).
With GFTLNSYGIS | VIYSDGRRTFYYDSVK | GRAAGTFGS the result was nd (0 of 3 replicates; controls 0 of 9).
With GFTLNAYGIS | VIYSDGRRTFYGDSVK | GRHAGFFDS the result was nd (0 of 3 replicates; controls 0 of 9).
With GFTENSYGIS | VIYSDGRRTFYNQSVK | GRAAGTFDS the result was 4.61 (1 of 3 replicates; controls 4 of 9).
With GFTLNSNGIS | KIYSDGRRTFYGDSVK | GRAAGTEDS the result was nd (0 of 3 replicates; controls 1 of 9).
With GFTRNSYGIS | VIYSDDRRTFYGDSVK | GRAAGLFDS the result was nd (0 of 3 replicates; controls 0 of 9).
With DFTLNSYGIS | VIYSTGRRTFYGDSVK | GRAAGTFDS the result was nd (0 of 3 replicates; controls 0 of 9).
With GFTPNSYGIS | VIYSDLRRTFYGDSVK | GRAAGTFDS the result was nd (0 of 3 replicates; controls 3 of 9).
With GFTLNSYGIS | VIYSDGRRTFYGWSVK | GRAGETFDS the result was nd (0 of 3 replicates; controls 0 of 9).
With GFWLNSYFIS | VTYSDGRRTFYGDSVK | GRAAGTFDS the result was nd (0 of 3 replicates; controls 2 of 9).

The 2 strongest on average among those seen in every replicate, once more:

CDR-H1,CDR-H2,CDR-H3,"mean, log10 nM",replicates with signal,empty controls
GFTLNSYGIS,VLYSDGRRTFYGDSVK,GHAAGLFDS,1.53,3 of 3,0 of 9
GFTLQSYGKS,VIYSDGRRTFYGDSVK,RRAAGTFDS,2.13,3 of 3,6 of 9